Assay results from PMC8624105 (Viruses, 2021).

Key:
Test in all cases: holdup assay
Type in all cases: binding, human
SHROOM2 PDZ1 = tested on: SHROOM2 PDZ1
RHPN1 PDZ1 = conditions: PDZ about 4 μM; two independent experiments
GRID2IP PDZ2 = conditions: PDZ about 4 μM; two independent experiments
FRMPD4 PDZ1 = conditions: PDZ about 4 μM; two independent experiments
FRMPD3 PDZ1 = conditions: PDZ about 4 μM; two independent experiments
MYO18A PDZ1 = conditions: PDZ about 4 μM; two independent experiments
MAGI1 PDZ4 = conditions: PDZ about 4 μM; two independent experiments
PDLIM3 PDZ1 = conditions: PDZ about 4 μM; two independent experiments
MAGI3 PDZ3 = conditions: PDZ about 4 μM; two independent experiments
LDB3 PDZ1 = conditions: PDZ about 4 μM; two independent experiments
PPP1R9B PDZ1 = conditions: PDZ about 4 μM; two independent experiments
AHNAK1 PDZ1 = conditions: PDZ about 4 μM; sd not given
InaDl PDZ2 = conditions: PDZ about 4 μM; two independent experiments
LNX2 PDZ2 = conditions: PDZ about 4 μM; two independent experiments
InaDl PDZ4 = conditions: PDZ about 4 μM; two independent experiments
LIN7B PDZ1 = conditions: PDZ about 4 μM; two independent experiments
RGS12 PDZ1 = conditions: PDZ about 4 μM; two independent experiments
STXB4 PDZ1 = conditions: PDZ about 4 μM; two independent experiments
PDZD7 PDZ2 = conditions: PDZ about 4 μM; two independent experiments
PDZD2 PDZ3 = conditions: PDZ about 4 μM; two independent experiments
DLG4 PDZ3 = conditions: PDZ about 4 μM; two independent experiments
APBA2 PDZ1 = conditions: PDZ about 4 μM; sd not given
DLG3 PDZ1 = conditions: PDZ about 4 μM; two independent experiments
MAGI1 PDZ3 = conditions: PDZ about 4 μM; two independent experiments
GRIP2 PDZ7 = conditions: PDZ about 4 μM; two independent experiments
MAGI2 PDZ4 = conditions: PDZ about 4 μM; two independent experiments
LIN7A PDZ1 = conditions: PDZ about 4 μM; two independent experiments
PDZD8 PDZ1 = conditions: PDZ about 4 μM; two independent experiments
DLG2 PDZ3 = conditions: PDZ about 4 μM; two independent experiments
MPP7 PDZ1 = conditions: PDZ about 4 μM; two independent experiments
SHROOM3 PDZ1 = conditions: PDZ about 4 μM; two independent experiments
MPDZ PDZ2 = conditions: PDZ about 4 μM; two independent experiments
MAGI3 PDZ2 = conditions: PDZ about 4 μM; two independent experiments
PDZRN4 PDZ1 = conditions: PDZ about 4 μM; two independent experiments
DFNB31 PDZ2 = conditions: PDZ about 4 μM; two independent experiments
MPDZ PDZ8 = conditions: PDZ about 4 μM; two independent experiments
MAGI2 PDZ3 = conditions: PDZ about 4 μM; two independent experiments
LRRC7 PDZ1 = conditions: PDZ about 4 μM; two independent experiments
GORASP1 PDZ1 = conditions: PDZ about 4 μM; two independent experiments
APBA2 PDZ2 = conditions: PDZ about 4 μM; two independent experiments
MAGIX PDZ1 = conditions: PDZ about 4 μM; two independent experiments
DLG1 PDZ2 = conditions: PDZ about 4 μM; two independent experiments
MPP1 PDZ1 = conditions: PDZ about 4 μM; two independent experiments
SDCBP PDZ1 = conditions: PDZ about 4 μM; two independent experiments
GRIP2 PDZ4 = conditions: PDZ about 4 μM; two independent experiments
InaDl PDZ10 = conditions: PDZ about 4 μM; two independent experiments
TX1B3 PDZ1 = conditions: PDZ about 4 μM; two independent experiments
GRIP1 PDZ4 = conditions: PDZ about 4 μM; two independent experiments
USH1C PDZ2 = conditions: PDZ about 4 μM; two independent experiments
InaDl PDZ1 = conditions: PDZ about 4 μM; two independent experiments
DVL2 PDZ1 = conditions: PDZ about 4 μM; two independent experiments

Substance: Biotin-(PEG3)-GFQNTDDVQTSF [ACE2 PBM peptide]
- BI (binding intensity) (SHROOM2 PDZ1; PDZ about 4 μM, two independent experiments): 0.26
- Kd (SHROOM2 PDZ1; converted from BI, PDZ typically 4 μM, immobilized peptide 21 μM, listed as PBM peptide from ACE2 protein, read-out: Kd estimated): 55.7 µM
- BI (binding intensity) (RHPN1 PDZ1): 0.16
- BI (binding intensity) (GRID2IP PDZ2): 0.14
- BI (binding intensity) (FRMPD4 PDZ1): 0.11
- BI (binding intensity) (FRMPD3 PDZ1): 0.07
- BI (binding intensity) (MYO18A PDZ1): 0.06
- BI (binding intensity) (MAGI1 PDZ4): 0.06
- BI (binding intensity) (PDLIM3 PDZ1): 0.05
- BI (binding intensity) (MAGI3 PDZ3): 0.03
- BI (binding intensity) (LDB3 PDZ1): 0.02
- BI (binding intensity) (PPP1R9B PDZ1): 0.01
- BI (binding intensity) (AHNAK1 PDZ1): 0.00
- BI (binding intensity) (InaDl PDZ2): -0.01
- BI (binding intensity) (LNX2 PDZ2): -0.01
- BI (binding intensity) (InaDl PDZ4): -0.01
- BI (binding intensity) (LIN7B PDZ1): -0.01
- BI (binding intensity) (RGS12 PDZ1): -0.02
- BI (binding intensity) (STXB4 PDZ1): -0.03
- BI (binding intensity) (PDZD7 PDZ2): -0.03
- BI (binding intensity) (PDZD2 PDZ3): -0.03
- BI (binding intensity) (DLG4 PDZ3): -0.03
- BI (binding intensity) (APBA2 PDZ1): -0.03
- BI (binding intensity) (DLG3 PDZ1): -0.04
- BI (binding intensity) (MAGI1 PDZ3): -0.04
- BI (binding intensity) (GRIP2 PDZ7): -0.04
- BI (binding intensity) (MAGI2 PDZ4): -0.04
- BI (binding intensity) (LIN7A PDZ1): -0.04
- BI (binding intensity) (PDZD8 PDZ1): -0.04
- BI (binding intensity) (DLG2 PDZ3): -0.04
- BI (binding intensity) (MPP7 PDZ1): -0.04
- BI (binding intensity) (SHROOM3 PDZ1): -0.04
- BI (binding intensity) (MPDZ PDZ2): -0.05
- BI (binding intensity) (MAGI3 PDZ2): -0.05
- BI (binding intensity) (PDZRN4 PDZ1): -0.05
- BI (binding intensity) (DFNB31 PDZ2): -0.05
- BI (binding intensity) (MPDZ PDZ8): -0.06
- BI (binding intensity) (MAGI2 PDZ3): -0.06
- BI (binding intensity) (LRRC7 PDZ1): -0.06
- BI (binding intensity) (GORASP1 PDZ1): -0.06
- BI (binding intensity) (APBA2 PDZ2): -0.06
- BI (binding intensity) (MAGIX PDZ1): -0.06
- BI (binding intensity) (DLG1 PDZ2): -0.07
- BI (binding intensity) (MPP1 PDZ1): -0.07
- BI (binding intensity) (SDCBP PDZ1): -0.08
- BI (binding intensity) (GRIP2 PDZ4): -0.08
- BI (binding intensity) (InaDl PDZ10): -0.09
- BI (binding intensity) (TX1B3 PDZ1): -0.09
- BI (binding intensity) (GRIP1 PDZ4): -0.10
- BI (binding intensity) (USH1C PDZ2): -0.25
- BI (binding intensity) (InaDl PDZ1): -0.34
- BI (binding intensity) (DVL2 PDZ1): -0.38
